Where two headings read alike, the source gives them in different places.
What was measured:
[1] = molecular target: T1, OccJ WT (Agrobacterium tumefaciens, UniProt P0A4F8); type: binding; conditions: intrinsic protein fluorescence titration; 20 °C; 50 mM Tris-HCl pH 8.0, 150 mM NaCl; 1 µM protein; read-out: K D (F)
T1 construct: The mature PBP OccJ (256 aa without the signal peptide) expression plasmid was obtained by cloning the occJ gene lacking the first twenty residues; hexahistidine (C); made in house; host or cells: E. coli BL21
Procedure: (§1) Binding of ligands to OccJ, NocT, LAO and protein mutants was monitored by autofluorescence by exciting the protein at a wavelength of 295 nm and monitoring the quenching of fluorescence emission of tryptophans at 335 nm. All experiments were performed at 20 °C in 96 wells plates (1/2 Area Plate-96F, Perkin Elmer) using Tecan Infinite M1000 reader (Tecan), in 50 mM Tris-HCl pH 8.0, 150 mM NaCl buffer with a fixed amount of proteins (1 µM) and increasing concentrations of ligand. […] The data were analysed using Origin® 7 software and fitted to the equation f = ΔFluorescencemax * abs(x)/(K D + abs(x)).

By UniProt entry, the sequences of proteins in these tests, tags left out. Residues count along the entry.
UniProt P0A4F8, 21-276: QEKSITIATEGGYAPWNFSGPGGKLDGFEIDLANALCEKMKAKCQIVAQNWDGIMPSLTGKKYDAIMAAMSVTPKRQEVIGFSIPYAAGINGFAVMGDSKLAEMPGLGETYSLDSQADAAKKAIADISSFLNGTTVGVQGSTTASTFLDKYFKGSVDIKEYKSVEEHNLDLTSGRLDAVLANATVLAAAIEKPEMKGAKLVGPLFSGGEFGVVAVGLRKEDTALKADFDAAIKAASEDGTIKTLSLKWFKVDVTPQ
UniProt P35120, 26-283: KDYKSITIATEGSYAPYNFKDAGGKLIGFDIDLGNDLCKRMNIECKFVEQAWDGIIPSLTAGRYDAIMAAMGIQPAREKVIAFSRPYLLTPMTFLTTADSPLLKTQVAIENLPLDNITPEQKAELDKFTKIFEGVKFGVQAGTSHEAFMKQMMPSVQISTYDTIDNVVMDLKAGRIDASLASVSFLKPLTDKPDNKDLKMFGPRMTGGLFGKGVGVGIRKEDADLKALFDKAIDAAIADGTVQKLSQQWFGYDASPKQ

[2] = molecular target: T2, NocT WT (Agrobacterium fabrum, UniProt P35120); type: binding, Agrobacterium tumefaciens; conditions: fluorescence titration; 20 °C; pH 8.0; octopine family members and analogues; read-out: Kd (F)
T2 construct: Cloning of mature OccJ, NocT-G97S, OccJ-S91G, OccJ-N202D, LAO and LAO-Q122A; made in house
Procedure: as §1

[3] = molecular target: T1, OccJ WT; experiment: OccJ WT ligand binding, isothermal titration microcalorimetry; conditions: ITC, 20 °C
Procedure: (§2) Isothermal titration microcalorimetry experiments were performed with an ITC200 isothermal titration calorimeter from MicroCal (GE Healthcare). The experiments were carried out at 20 °C. Protein concentration in the microcalorimeter cell (0.2 mL) varied from 20 to 150 µM. Nineteen injections of 2 µL of ligand solution (amino acids, opines and octopine derivatives) at concentration ranging from 240 µM to 1.5 mM were performed at intervals of 180 s while stirring at 500 rpm. The experimental data were fitted to theoretical titration curves with software supplied by MicroCal (ORIGIN®). This software uses the relationship between the heat generated by each injection and ΔH (enthalpy change in kcal/mol), Ka (the association binding constant in M^−1), n (the number of binding sites), total protein concentration and free and total ligand concentrations.

[4] = molecular target: T2, NocT WT; type: binding, Agrobacterium tumefaciens; conditions: ITC, 20 °C
Procedure: as §2

Compound | Kd [1] [nM] | Kd [2] [nM] | Kd [3] [nM] | Kd [4] [nM]
NCCC[C@H](NCC(=O)O)C(=O)O [noroctopinic acid] | 230 ± 400 | – | – | –
homo-octopine | 230 ± 30 | 5400 ± 600 | 530 ± 40 | 30600 ± 2100

— paper PMC5740067 (Scientific Reports, 2017)
